The assay addresses WT AChE1 (Culex pipiens, UniProt Q86GC8). Briefly: AChE assay (Ellman), dose-response on recombinant WT AChE1. The class given is biochemical. Set-up: made in house; host or cells: Drosophila S2 cells. (In general: In Ellman's method for cholinesterases, released thiocholine reacts with DTNB.)

Sequences of proteins named here, by UniProt entry; tags and fusion partners are left off. Residues count along the entry.
UniProt Q86GC8, 37-702: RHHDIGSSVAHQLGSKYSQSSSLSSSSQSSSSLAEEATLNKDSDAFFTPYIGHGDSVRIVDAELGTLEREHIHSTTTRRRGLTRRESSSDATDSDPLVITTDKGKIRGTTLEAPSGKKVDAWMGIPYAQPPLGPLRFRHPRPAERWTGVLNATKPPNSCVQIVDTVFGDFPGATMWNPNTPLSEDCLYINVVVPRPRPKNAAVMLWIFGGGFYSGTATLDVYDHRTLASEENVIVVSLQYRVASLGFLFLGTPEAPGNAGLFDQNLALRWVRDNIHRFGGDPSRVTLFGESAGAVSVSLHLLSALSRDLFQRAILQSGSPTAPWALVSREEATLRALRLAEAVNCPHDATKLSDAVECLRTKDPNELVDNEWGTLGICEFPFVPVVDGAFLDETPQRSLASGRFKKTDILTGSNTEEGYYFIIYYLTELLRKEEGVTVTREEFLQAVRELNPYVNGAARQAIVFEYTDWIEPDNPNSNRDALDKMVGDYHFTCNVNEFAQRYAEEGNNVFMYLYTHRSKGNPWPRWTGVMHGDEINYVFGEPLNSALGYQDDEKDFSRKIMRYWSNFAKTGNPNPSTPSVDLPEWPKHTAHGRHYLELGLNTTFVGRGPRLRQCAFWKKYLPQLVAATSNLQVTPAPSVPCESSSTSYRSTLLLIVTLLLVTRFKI

One may read the IC50 as the point on the concentration scale where inhibition reaches its midpoint.

As to `CCOP(=O)(OCC)Oc1nc(Cl)c(Cl)cc1Cl` [Chlorpyrifos-oxon, reference compound], the IC50 was 10 nM. The value for `CCOP(=O)(OCC)Oc1ccc([N+](=O)[O-])cc1` [Paraoxon, reference compound] was 170 nM.
